Results on two compounds are retold here after PMC2698029 (Journal of medicinal chemistry, 2009).

The test deals with Plasmodium berghei, ANKA strain. Briefly: Single oral dose antimalarial efficacy in P. berghei-infected mice. The class given is in vivo, C57BL/6J male mice.

Take `C[C@H]1[C@@H](CC(C[C@H]2O[C@@H]3C[C@]4(C)CC[C@H]5[C@H](C)CC[C@@H]([C@H]2C)[C@@]35OO4)CS(=O)(=O)c2ccc(COC(=O)N(C)C)cc2)O[C@@H]2C[C@]3(C)CC[C@H]4[C@H](C)CC[C@@H]1[C@@]24OO3` [Dimer 4c, dimeric sulfone benzylic dimethyl carbamate]: under “single oral dose 1 × 144 mg/kg, in parentheses actual mouse survival until day”, the “Average Survival (days) After Infection” value was found to be 30.0 days.

Consider `C[C@H]1[C@@H](CC(C[C@H]2O[C@@H]3C[C@]4(C)CC[C@H]5[C@H](C)CC[C@@H]([C@H]2C)[C@@]35OO4)CS(=O)(=O)c2ccc(CO)cc2)O[C@@H]2C[C@]3(C)CC[C@H]4[C@H](C)CC[C@@H]1[C@@]24OO3` (some centres unmarked) [Dimer 4b, dimeric sulfone benzylic alcohol], for which, for the setting “dimer 40 mg/kg combined with mefloquine hydrochloride 13 mg/kg, single oral dose”, the Average survival was determined as 28 days.
